Among the data in ChEMBL document CHEMBL3826914, “Selective photodepletion of malignant T cells in extracorporeal photopheresis with selenorhodamine photosensitizers” (Bioorg Med Chem, 2016) are Survival values, retold here.

The nature of this experiment: Phototoxicity SEB-stimulated human CD25 deficient CD3 positive cells co-cultured with GFP expressing human HUT78 cells assessed as cell survival at 7.5 x 10^-8 M preincubated 20 mins in photosensitizer media followed by growth in photosensitizer-free media for 30 mins measured 18 hrs after exposure to 5 J/cm2 irradiation by FACS analysis.
With `C[N+]1=c2cc3c(cc2C(C)(C)CC1)=C(c1ccc(C(=O)N2CCCCC2)s1)c1cc2c4c(c1[Se]3)CCCN4CCC2.[Cl-]`, the Survival is 13.9%.

In the case of `CN1CCC(C)(C)c2cc3c(cc21)[Se]c1cc2c(cc1=C3c1ccc(C(=S)N3CCCCC3)s1)C(C)(C)CC[N+]=2C.[Cl-]`, the Survival turned out to be 11.1%.

As to `C[N+]1=c2cc3c(cc2C(C)(C)CC1)=C(c1ccc(C(=S)N2CCCCC2)s1)c1cc2c4c(c1[Se]3)CCCN4CCC2.[Cl-]`, the Survival came to 8.7%.

Turning to `O=C(c1ccc(C2=c3cc4c5c(c3[Se]c3c2cc2c6c3CCCN6CCC2)CCC[N+]=5CCC4)s1)N1CCCCC1.[Cl-]`, the Survival worked out at 83.4%.
